# Measurements published in patent US8318724B2, “Small molecule inhibitors of MRP1 and other multidrug transporters” (The Cleveland Clinic Foundation, priority 2004, dated 2012).
# By UniProt entry, the sequences of proteins in these tests, tags left out. Where a name states a change or a piece, a line headed by the entry shows the natural chain unless it says otherwise.
# UniProt P33527: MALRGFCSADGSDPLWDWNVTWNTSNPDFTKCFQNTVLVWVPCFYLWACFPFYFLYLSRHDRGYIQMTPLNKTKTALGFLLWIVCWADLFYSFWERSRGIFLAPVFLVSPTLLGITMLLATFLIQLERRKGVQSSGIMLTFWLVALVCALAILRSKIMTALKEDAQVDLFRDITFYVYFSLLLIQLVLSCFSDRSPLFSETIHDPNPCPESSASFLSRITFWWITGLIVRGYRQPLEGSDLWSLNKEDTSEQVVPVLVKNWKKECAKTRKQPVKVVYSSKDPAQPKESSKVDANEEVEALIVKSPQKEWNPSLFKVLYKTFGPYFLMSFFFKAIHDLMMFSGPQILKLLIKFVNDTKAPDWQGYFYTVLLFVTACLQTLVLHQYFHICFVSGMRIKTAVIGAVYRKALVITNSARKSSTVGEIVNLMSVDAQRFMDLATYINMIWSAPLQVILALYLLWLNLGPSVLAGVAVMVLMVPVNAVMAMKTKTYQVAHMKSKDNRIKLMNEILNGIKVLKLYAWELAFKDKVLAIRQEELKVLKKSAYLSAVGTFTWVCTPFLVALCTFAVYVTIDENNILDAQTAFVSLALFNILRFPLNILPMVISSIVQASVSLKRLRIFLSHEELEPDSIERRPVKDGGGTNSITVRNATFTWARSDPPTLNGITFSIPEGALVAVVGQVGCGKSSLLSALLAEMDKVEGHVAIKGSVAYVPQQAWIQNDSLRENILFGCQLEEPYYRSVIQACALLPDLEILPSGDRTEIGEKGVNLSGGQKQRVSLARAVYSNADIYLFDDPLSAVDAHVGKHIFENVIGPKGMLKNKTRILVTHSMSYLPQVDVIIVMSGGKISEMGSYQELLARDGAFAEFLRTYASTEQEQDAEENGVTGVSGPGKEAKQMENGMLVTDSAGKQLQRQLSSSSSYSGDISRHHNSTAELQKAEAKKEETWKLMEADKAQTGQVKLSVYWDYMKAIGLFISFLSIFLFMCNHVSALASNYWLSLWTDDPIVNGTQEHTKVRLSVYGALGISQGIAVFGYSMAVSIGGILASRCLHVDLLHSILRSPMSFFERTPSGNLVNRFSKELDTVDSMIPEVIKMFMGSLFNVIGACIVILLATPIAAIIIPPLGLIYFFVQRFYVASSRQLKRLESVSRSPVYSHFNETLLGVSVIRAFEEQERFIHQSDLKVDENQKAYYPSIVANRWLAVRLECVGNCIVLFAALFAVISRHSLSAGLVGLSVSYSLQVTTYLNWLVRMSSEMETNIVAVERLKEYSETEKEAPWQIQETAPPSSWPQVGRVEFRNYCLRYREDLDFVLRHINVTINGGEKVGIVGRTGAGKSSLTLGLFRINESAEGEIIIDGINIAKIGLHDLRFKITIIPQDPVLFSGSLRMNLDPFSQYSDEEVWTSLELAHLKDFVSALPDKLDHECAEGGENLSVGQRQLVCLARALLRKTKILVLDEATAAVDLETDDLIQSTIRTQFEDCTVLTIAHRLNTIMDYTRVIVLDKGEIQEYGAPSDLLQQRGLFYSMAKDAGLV
# Legend:
# [1] = tested on: NB; assay: In vivo efficacy in mouse model of NB in combination with chemotherapeutic agents (FIG. 20); details: n=10, MRP1-transported agent
# Excerpt: FIG. 20 contains plots showing in vivo efficacy of compound 4H10 in increasing the therapeutic effect of two known MRP1 substrate drugs, but not for a nonsubstrate drug.
# The test was a clinically relevant mouse model of NB that closely reflects the human disease (n=10, unless otherwise noted).
# [2] = molecular target: T1, MRP1 (Homo sapiens, UniProt P33527); assay: Dose dependence of drug sensitization effect, 4H10 vs MK571 (FIG. 14); type: cell-based; details: by effective concentration
# T1 construct: MCF7/VP breast cancer cells (24), which have amplified and overexpressed MRP1, but negligible Pgp expression; endogenous in cells; host or cells: MCF7/VP (MCF7/VP clone 14) breast cancer cells
# Excerpt: FIG. 14 contains plots of relative cell viability (%) vs. inhibitor concentration (μM) comparing a present inhibitor compound 4H10 to a prior MRP1 inhibitor MK571;
# FIG. 14 summarizes a determination of dose dependence of drug, sensitization effect of compound 4H10 compared to the conventional MRP1 inhibitor MK571.
smiles,measurement,setting,value
O=C(NCCCN1CCOCC1)c1cnn2c(-c3ccccc3)cc(-c3ccccc3)nc12 [Compound 4H10],effect on therapeutic effects of VP-16,[1],significantly increases
same,effect on therapeutic effects of vincristine,[1],significantly increases
same,potency relative to MK571,[2],about 100 times
